Screening data (PubChem BioAssay)
CendR NRP1 mod: modulators of CendR peptide binding to NRP-1, primary screen, biochemical, fluorescence polarization, uHTS. 0.85% of 360,000 active. AID 602438, 2012. inhibition, % at 25 µM. FAM-RPARPAR peptide binding to NRP-1;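 active = inhibition or corrected inhibition above about 18%, plus a signal ratio from 0.5 to 1.5, limit read from the data, passing the limit was not always enough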
ASAP1 inh: inhibitors of human ASAP1 ArfGAP activity, primary screen, biochemical, fluorescence polarization. inhibition, % at 16.5 µM. 0.19% of 360,000 active. Arf-GAP with SH3 domain, ANK repeat and PH domain-containing protein 1 (Homo sapiens), …. ASAP1-stimulated ARF1 GTP hydrolysis, GDP FP detection; in the data active = inhibition above about 25%;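 note: 0% = vehicle with enzyme and substrate and 100% = no enzyme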
Yeast UUG start-1: modulators of start codon recognition fidelity in yeast; AID 602363; activity score, % at 18.7 µM; S. cerevisiae UUG-firefly luciferase reporter, luminescence/redox ratio; 0.13% of 350,000 active;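 active = replicate mean at a twofold rise or more, about +100% in these data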;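 note: firefly luciferase made from a UUG start codon reports start codon fidelity; reporter light over untreated wells divided by growth signal over untreated wells; some hits fall short of that in this replicate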
ARFGAP1 inhibitor: inhibitors of rat ARFGAP1 GAP activity, primary screen, biochemical, fluorescence polarization, GDP tracer; ADP-ribosylation factor GTPase-activating protein 1 (Rattus norvegicus), Q62848; inhibition, % at 16.5 µM; Arfgap1-stimulated ARF1 GTP hydrolysis, GDP FP detection; 0.26% of 360,000 active;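 active = inhibition above a per-plate limit, mean inhibition of low control wells plus 3 SD, cut at about 25% in these data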;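 note: 0% = DMSO wells with enzyme and 100% = wells lacking Arfgap1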
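material = rat Arfgap1 catalytic domain, aa 1-136 | also added = human ARF1(Δ1-17)-GTP substrate | compound dosing = one concentration, 16.5 µM, DMSO 1.26% | times = GTP hydrolysis reaction 2 h at 25 °C | measured by = FP, GDP Alexa 633 tracer displaced from anti-GDP antibody, 620/688 nm | evaluation = percent inhibition of Arfgap1-stimulated GTP hydrolysis | replication = single well per compound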
MC4R barr agon: MC4R agonists recruiting beta-arrestin, primary screen, cell-based, luminescence, agonist arm of biased-ligand search; Melanocortin receptor 4 (Homo sapiens), P32245; U2OS MC4R beta-arrestin complementation; percent of melanotan II response, DMSO zero; activation, % at 8.9 µM; 0.98% of 360,000 active;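 active = activation above a per-plate cutoff, the mean activation of sample wells on that plate plus 3 SD, cut at about 8% in these data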
MC4R antagonist: MC4R antagonists of cAMP signaling, primary screen, cell-based, TR-FRET, antagonist arm of biased-ligand search; Melanocortin receptor 4 (Homo sapiens), P32245; MC4R-expressing cells, MTII-stimulated cAMP, LANCE TR-FRET; inhibition, % at 6.5 µM; 0.48% of 360,000 active; AID 540295, 2011;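 active = inhibition above its plate's cutoff, the mean of tested wells on that plate plus 3 SD, cut at about 29% in these data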;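 note: 0% = Melanotan II alone and 100% = Melanotan II plus saturating MCL0020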
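Test system: U2OS cells stably expressing human melanocortin 4 receptor (MC4R); also added: Melanotan II challenge; compound: 6.5 µM single dose; timing: 30-min compound preincubation, 1-h Melanotan II challenge, 1-h detection, room temperature; signal: Eu-cAMP/anti-cAMP TR-FRET, emission 671 nm; repeats: one well per compound, no replicates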
cAMP nonselect: nonselective cAMP signaling inhibitors, parental cells, counter-screen for MC4R biased antagonist project, cell-based, TR-FRET, U2OS, forskolin, triplicate; shares compounds with MC4R antagonist; LANCE TR-FRET; inhibition, % at 6.5 µM; 26% of 1,600 active;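 active = mean inhibition over triplicates above the low-control well mean plus 3 SD, set per campaign, cut at about 13% in these data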;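 note: signal is single emission at 671 nm which falls as cellular cAMP rises; 0% = forskolin-stimulated wells and 100% = buffer without forskolin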
MC4R antag conf: MC4R cAMP antagonists, retest, confirmation, cell-based, TR-FRET. shares compounds with MC4R antagonist. MC4R-expressing cells, MTII-stimulated cAMP. inhibition, % at 6.5 µM. 27% of 1,600 active; in the data active = inhibition above about 29%;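 note: 0% = agonist stimulated wells alone and 100% = agonist stimulated wells plus saturating reference antagonist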
MC4R barr conf: MC4R beta-arrestin agonists, retest, confirmation, cell-based, luminescence, U2OS; shares compounds with MC4R barr agon; U2OS MC4R beta-arrestin recruitment; scaled DMSO 0%, Melanotan II 100%; activation, % at 8.9 µM; 31% of 2,400 active; AID 602192, 2012;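 active = mean activation across replicates above the hit cutoff set in the earlier primary screen, cut at about 8% in these data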
MOR-DOR barr ag: agonists of MOR-DOR heterodimerization, counter-screen for MC4R biased agonist project, cell-based, luminescence. U2OS PathHunter beta-arrestin, beta-gal luminescence; percent of deltorphin B response, DMSO zero. shares compounds with MC4R barr agon. AID 602194, 2012. activation, % at 9.2 µM. 5.8% of 2,400 active;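 active = mean activation across replicates exceeds the hit threshold derived in the earlier primary screen, cut at about 18% in these data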;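 note: 100% = deltorphin B at 0.9 µM final and 0% = DMSO alone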
Yeast UUG start-2: enhancers of UUG start codon usage in yeast, dose response, S. cerevisiae, UUG firefly luciferase, cherry-pick, set 2; 540 tested, under 10 active; activation, % at 38 µM; luminescence, 4 h; 100% means double the DMSO signal; shares compounds with Yeast UUG start-1;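 active = signal increase whose fitted curve reaches an absolute level of 40 at a concentration under 10 µM; inactive = activity opposite to the expected increase, or the rest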
ASAP1 inh confirm: ASAP1 GAP activity inhibitors, confirmation, biochemical, fluorescence polarization, human, triplicate; AID 624431, 2012; shares compounds with ASAP1 inh; ASAP1-stimulated Arf1 GTPase, GDP fluorescence polarization; 37% of 620 active; inhibition, % at 16.5 µM;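 active = mean inhibition over triplicates exceeds the hit threshold derived for the earlier primary screening run, cut at about 25% in these data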
The depositor's hits bear a star; x = no result given. An excerpt weighted towards active compounds, which were near 2.3% of everything screened.

By UniProt entry, the sequences of proteins in these tests, tags left out. Residues count along the entry.
ADP-ribosylation factor GTPase-activating protein 1 (Rattus norvegicus), Q62848, UniProt Q62848, whole entry, looked up: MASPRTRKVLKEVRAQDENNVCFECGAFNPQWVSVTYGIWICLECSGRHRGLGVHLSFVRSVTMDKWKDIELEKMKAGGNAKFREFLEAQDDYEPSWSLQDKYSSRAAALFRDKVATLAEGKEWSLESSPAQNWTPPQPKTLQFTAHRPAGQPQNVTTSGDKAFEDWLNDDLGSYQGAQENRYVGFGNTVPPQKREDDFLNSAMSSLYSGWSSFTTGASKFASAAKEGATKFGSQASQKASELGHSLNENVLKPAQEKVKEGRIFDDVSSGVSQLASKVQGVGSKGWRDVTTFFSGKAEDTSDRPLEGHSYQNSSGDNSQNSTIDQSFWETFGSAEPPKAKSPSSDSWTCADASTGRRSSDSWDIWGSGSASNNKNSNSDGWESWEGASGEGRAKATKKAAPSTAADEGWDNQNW
ADP-ribosylation factor GTPase-activating protein 1 (Rattus norvegicus), Q62848, UniProt Q62848, 1-136 limits assumed: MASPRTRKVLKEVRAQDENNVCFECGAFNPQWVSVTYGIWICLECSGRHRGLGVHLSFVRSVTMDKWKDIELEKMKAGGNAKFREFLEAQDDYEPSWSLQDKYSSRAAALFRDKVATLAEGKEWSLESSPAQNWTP
Melanocortin receptor 4 (Homo sapiens), P32245, UniProt P32245, whole entry, looked up: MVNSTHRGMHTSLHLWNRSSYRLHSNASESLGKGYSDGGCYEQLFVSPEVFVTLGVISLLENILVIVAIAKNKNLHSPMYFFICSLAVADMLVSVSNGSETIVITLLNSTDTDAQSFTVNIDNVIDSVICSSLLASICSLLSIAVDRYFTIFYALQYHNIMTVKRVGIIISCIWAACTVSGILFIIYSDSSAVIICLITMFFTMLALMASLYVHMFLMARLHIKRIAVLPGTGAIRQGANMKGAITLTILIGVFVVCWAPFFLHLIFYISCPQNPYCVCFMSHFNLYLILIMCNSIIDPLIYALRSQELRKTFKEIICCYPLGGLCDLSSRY

SMILES | CendR NRP1 mod | ASAP1 inh | Yeast UUG start-1 | ARFGAP1 inhibitor | MC4R barr agon | MC4R antagonist | cAMP nonselect | MC4R antag conf | MC4R barr conf | MOR-DOR barr ag | others
COC(=O)CSc1nc2ccc(NC(=O)c3ccccc3C(=O)N3CCOCC3)cc2s1 | -3 | 9 | -4 | 9 | -3 | 14 | x | x | x | x
O=C(Nc1ccc2nc(SCc3ccc(Cl)cc3)sc2c1)c1ccccc1C(=O)N1CCOCC1 | 8 | 1 | -14 | 0 | 10.0* | 64* | 30* | 66* | 24* | 17
O=C(Nc1ccccc1-c1nc2ccccc2[nH]1)c1ccc(N2C(=O)CCC2=O)cc1 | -149 | 15 | x | 6 | 10* | 35* | -1 | 27 | 2 | 10
CCCCCCCCCCC[N+](C)(C)CC/C=C1/c2ccccc2Sc2ccc(Cl)cc21 | 0 | x | -30 | x | 21* | 36* | 7 | 30* | 25* | 19*
CCCCCCCCCC[N+](C)(C)CC/C=C1/c2ccccc2Sc2ccc(Cl)cc21 | 12 | x | -26 | x | 17* | 41* | 9 | 40* | 18* | 26*
Cc1noc(C)c1S(=O)(=O)Nc1ccc2c(c1)C(=O)N([C@@H](C)CO)C[C@@H](C)[C@@H](CN(C)C(=O)Nc1cccc3ccccc13)O2 | x | x | 0 | x | x | x | x | x | x | x
CC(=O)OC[C@]1(OC(C)=O)C[C@@]23CC[C@H]4[C@@](C)(CCC[C@@]4(C)C(=O)O)[C@@H]2CC[C@@H]1C3 | 4 | 0 | 13 | 3 | -2 | -2 | x | x | x | x
CC(=O)OC[C@]12CC[C@H]3[C@@](C)(CC[C@H]4C(C)(C)CCC[C@]34C)[C@@H]1CC(C1=CC(=O)OC1O)O2 (stereo partly specified) | -132 | -17 | 23 | -29 | 91* | 52* | 6 | 35* | 26* | 82*
COCC(=O)Nc1ccc2c(c1)C(=O)N(C)[C@H]1CC[C@@H](CC(=O)NCC3CCCCC3)O[C@H]1CO2 | x | x | 2 | x | x | x | x | x | x | x
COCC(=O)N(C)C[C@@H]1Oc2cc(C3=CCCCC3)ccc2S(=O)(=O)N([C@H](C)CO)C[C@@H]1C | x | x | 28 | x | x | x | x | x | x | x
CCc1nnc(NS(=O)(=O)c2ccc(NC(=S)NC(=O)/C=C/c3ccc(C(C)C)cc3)cc2)s1 | -113 | x | x | x | 24* | 29* | -2 | -6 | 1 | 1
CCCCCCCCCCCCCCCC[N+](C)(C)Cc1ccc(F)cc1 | 13 | -12 | x | -5 | 16* | 42* | -1 | 32* | 31* | 13
COc1ccc(S(=O)(=O)Nc2ccc3c(c2)CC(=O)N([C@H](C)CO)C[C@H](C)[C@H](CN(C)C(=O)Nc2ccc(F)cc2)O3)cc1 | x | x | -7 | x | x | x | x | x | x | x
C/C=C/c1ccc2c(c1)O[C@H](CN(C)C(=O)C1CC1)[C@@H](C)CN([C@@H](C)CO)S2(=O)=O | x | x | -6 | x | x | x | x | x | x | x
O=C(/C=C/c1ccc2c(c1)OCO2)N1CCN(c2ccc(Cl)cc2)CC1 | 2 | 7 | x | -6 | 13* | 29* | -3 | -17 | 2 | 4
O=C(/C=C/c1ccc2c(c1)OCCO2)N1CCN(c2ccc(F)cc2)CC1 | 13 | -6 | -15 | 4 | -1 | 2 | x | x | x | x
COc1ccc2[nH]c3c(c2c1)CCNC3=O | -2 | -8 | -13 | -7 | -1 | 0 | x | x | x | x
C=C1CCc2c([nH]c3ccc(OCC(C)C)cc23)C1=O | 3 | -5 | -11 | 4 | 14* | 45* | 12 | 32* | 13* | 12
CC1C/C(=C/c2ccncc2)C(=O)/C(=C/c2ccncc2)C1 (stereo unspecified) | 13 | -2 | 302* | 6 | -1 | 31* | 29* | 30* | x | x | Yeast UUG start-2=-28
COc1ccc(CN(C)C[C@H]2Oc3ccc(NC(=O)NC(C)C)cc3CC(=O)N([C@H](C)CO)C[C@H]2C)cc1 | x | x | 22 | x | x | x | x | x | x | x
Cc1ccc2[nH]c(O)c(N=NC(=O)c3ccc(NS(=O)(=O)c4cccs4)cc3)c2c1 | -4 | 29* | x | -2 | 4 | 34* | -3 | -17 | x | x | ASAP1 inh confirm=9
CO[C@H]1CN(C)C(=O)c2cc(NS(=O)(=O)c3cccc(F)c3)ccc2OC[C@@H](C)N(Cc2cc(F)ccc2F)C[C@@H]1C | x | x | 3 | x | x | x | x | x | x | x
COc1ccc2oc(=O)c(-c3csc(Nc4cccc(O)c4)n3)cc2c1 | -13 | 32* | -16 | 17 | 13* | 30* | 5 | 2 | 28* | 4 | ASAP1 inh confirm=48*
CC(=O)Nc1ccc(Nc2nc(-c3cc4ccccc4oc3=O)cs2)cc1 | -12 | 7 | -9 | -5 | 5 | 12 | x | x | x | x
COc1ccc(S(=O)(=O)N(C)C[C@@H]2Oc3c(NC(=O)NC4CCCCC4)cccc3C(=O)N([C@@H](C)CO)C[C@@H]2C)cc1 | x | x | 8 | x | x | x | x | x | x | x

Compounds above with an aryl thioether with sulfur outside any ring:
SMILES | CendR NRP1 mod | ASAP1 inh | Yeast UUG start-1 | ARFGAP1 inhibitor | MC4R barr agon | MC4R antagonist | cAMP nonselect | MC4R antag conf | MC4R barr conf | MOR-DOR barr ag | others
COC(=O)CSc1nc2ccc(NC(=O)c3ccccc3C(=O)N3CCOCC3)cc2s1 | -3 | 9 | -4 | 9 | -3 | 14 | x | x | x | x
O=C(Nc1ccc2nc(SCc3ccc(Cl)cc3)sc2c1)c1ccccc1C(=O)N1CCOCC1 | 8 | 1 | -14 | 0 | 10.0* | 64* | 30* | 66* | 24* | 17

3 entries out of the list, arranged by length of the SMILES, highest first.
SMILES | CendR NRP1 mod | ASAP1 inh | Yeast UUG start-1 | ARFGAP1 inhibitor | MC4R barr agon | MC4R antagonist | cAMP nonselect | MC4R antag conf | MC4R barr conf | MOR-DOR barr ag | others
COc1ccc(CN(C)C[C@H]2Oc3ccc(NC(=O)NC(C)C)cc3CC(=O)N([C@H](C)CO)C[C@H]2C)cc1 | x | x | 22 | x | x | x | x | x | x | x
O=C(/C=C/c1ccc2c(c1)OCCO2)N1CCN(c2ccc(F)cc2)CC1 | 13 | -6 | -15 | 4 | -1 | 2 | x | x | x | x
COc1ccc2oc(=O)c(-c3csc(Nc4cccc(O)c4)n3)cc2c1 | -13 | 32* | -16 | 17 | 13* | 30* | 5 | 2 | 28* | 4 | ASAP1 inh confirm=48*
